Source: US9192552B2, “Personal care compositions with improved solubility of a solid UV active” (priority 2011, dated 2015)
Read-outs that look alike come from different tables or passages of the source.

How the values were obtained:
[1] = Procedure: (§1) In the testing provided below, “soluble” (or “solubilize”), in relation to the solubility of a solid solute being tested, means that no visible crystals may be seen after a prescribed storage period at a storage condition. The storage period can vary. Suitable storage periods include about 24 hours, about 1 week, and about 30 days. Suitable storage conditions include ambient conditions or cold storage at 5° C. (approximately 1 atm). In certain embodiments, solubility may be determined after a 24 hour storage period at ambient conditions. In other embodiments, solubility may be determined after 20 days in cold storage. Other testing parameters may include storage for prolonged time periods (e.g., 30 day, 50 days, 60 days, 90 days) and at variable temperatures (e.g., 5° C., 50° C.).
The solvency of an isosorbide diester within the scope of the present invention was tested against two conventional, industry standard solvents. […] Various ratios of the solute:solvent were prepared by mixing solvents and the solid sunscreen (solute) and heating to 70° C. Upon reaching 70° C., the examples may be mixed for about 10 minutes. The mixtures are placed in a covered vial and cooled to the storage temperature. Solubility was evaluated for samples stored 24 hours after mixing at room temperature. […]

[2] = remark: listed apart in the source
Procedure: as §1
The solvency of an isosorbide diester within the scope of the present invention was tested against two conventional, industry standard solvents. […] Solubility was also evaluated for samples stored for 7 day at 5° C. followed by equilibration to ambient conditions.

C12-15 alkyl benzoate
S: Solubility at Solute:Solvent Ratio 1:3 [1] | Solubility at Solute:Solvent Ratio 1:4 [1] | Solubility at Solute:Solvent Ratio 1:4 [2] | Solubility at Solute:Solvent Ratio 1:6 [2] | Solubility at Solute:Solvent Ratio 1:8 [2]
